Experimental data reported in ChEMBL document CHEMBL2021862, “5-imino-1,2,4-thiadiazoles: first small molecules as substrate competitive inhibitors of glycogen synthase kinase 3” (J Med Chem, 2012).

Protein sequences, listed by entry. Tags and fused reporters are not part of them. Lines headed by an entry give the natural chain unless they say otherwise; changes in a name come on top.
UniProt P49841: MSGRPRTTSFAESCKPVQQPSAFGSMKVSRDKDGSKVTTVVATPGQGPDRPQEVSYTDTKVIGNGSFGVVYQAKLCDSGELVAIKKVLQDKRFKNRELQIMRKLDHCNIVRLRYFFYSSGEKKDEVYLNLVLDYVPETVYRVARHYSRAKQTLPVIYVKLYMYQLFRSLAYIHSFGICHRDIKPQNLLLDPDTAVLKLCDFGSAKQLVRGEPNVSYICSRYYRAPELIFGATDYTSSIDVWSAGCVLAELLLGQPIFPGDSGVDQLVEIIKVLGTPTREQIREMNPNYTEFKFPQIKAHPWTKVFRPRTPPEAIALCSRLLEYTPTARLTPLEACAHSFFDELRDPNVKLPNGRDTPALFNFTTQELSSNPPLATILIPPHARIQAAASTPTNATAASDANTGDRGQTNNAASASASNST

Biological target: Glycogen synthase kinase-3 beta (Homo sapiens, UniProt P49841)
Assay: Inhibition of human recombinant GSK3beta after 30 mins by luminescence assay in presence of ATP
How it was run: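 Human recombinant GSK-3β (20 ng) with prephosphorylated polypeptide substrate 25 μM and ATP 1 μM in 50 mM HEPES pH 7.5, 1 mM EDTA, 1 mM EGTA, 15 mM Mg acetate. Final DMSO ≤1%. Incubated 30 min at 30 °C, stopped with Kinase-Glo reagent, and luminescence read after 10 min. Inhibition is relative to the no-inhibitor maximum. IC50 is the concentration giving 50% activity loss.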

With `Br.c1ccc(/N=c2/nc(-c3ccccc3)n(-c3ccccc3)s2)cc1` as the compound, how does the IC50 read?
Its IC50 is 900 nM.

For `c1ccc(/N=c2\nc(-c3ccccc3)n(-c3ccccc3)s2)cc1`, which IC50 is on record?
The IC50 was 2800 nM.
